Measurements: patent US6420131B1, “Use of fluorescein aryl ethers in high throughput cytochrome P450 inhibition assays” (Gentest Corporation, priority 1999, dated 2002)

Tested on: panel of Human P450 enzymes
Assay: Specificity of dealkylation of CMFDE and MF by a panel of human P450 enzymes
Settings: any of the human P450 enzymes; 1 uM substrate

Substance: 5-(and-6)-chloromethylfluorescein diethyl ether [CMFDE]
- substrate quality based on turnover number: not a good substrate
